Target: T1, recombinant human GCase (rhGCase) (Homo sapiens, UniProt P04062)
T1 sequence (P04062 40-536): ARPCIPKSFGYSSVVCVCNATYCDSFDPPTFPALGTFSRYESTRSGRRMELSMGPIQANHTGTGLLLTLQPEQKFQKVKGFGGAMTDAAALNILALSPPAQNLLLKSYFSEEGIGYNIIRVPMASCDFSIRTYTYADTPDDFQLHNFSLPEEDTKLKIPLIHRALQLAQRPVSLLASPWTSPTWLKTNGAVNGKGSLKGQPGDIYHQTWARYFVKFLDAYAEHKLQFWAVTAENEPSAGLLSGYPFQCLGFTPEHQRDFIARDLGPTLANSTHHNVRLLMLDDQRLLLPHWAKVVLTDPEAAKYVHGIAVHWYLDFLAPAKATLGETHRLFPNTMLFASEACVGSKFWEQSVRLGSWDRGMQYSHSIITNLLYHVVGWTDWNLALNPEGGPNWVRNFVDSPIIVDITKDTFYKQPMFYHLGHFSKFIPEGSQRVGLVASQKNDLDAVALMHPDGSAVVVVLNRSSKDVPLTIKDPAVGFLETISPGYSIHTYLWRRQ
Format: cell-based

IC50: 6 ± 3 nM
SMILES: O[C@H]1[C@H](O)CNC[C@@H]1C(F)F [AT3375]

Source: article PMC12560045 (Chemical Science, 2025)
